Key:
Assay in all cases: yeast surface display affinity sorting with deep sequencing, enrichments normalized to ddG of purified proteins
[1] = molecular target: human mesotrypsin (Homo sapiens) (UniProt P35030)
[2] = molecular target: bovine trypsin (Bos taurus) (UniProt P00760)
[3] = molecular target: bovine alpha-chymotrypsin (Bos taurus) (UniProt P00766)

ddG [1] | ddG [2] | ddG [3] | Substance
0.663 kcal/mol | 2.45 kcal/mol | 0.507 kcal/mol | R39A (from UniProt P00974)
0.872 kcal/mol | 6.25 kcal/mol | 0.962 kcal/mol | R39C (from UniProt P00974)
1.89 kcal/mol | 5.43 kcal/mol | 2.52 kcal/mol | R39D (from UniProt P00974)
1.79 kcal/mol | 6.12 kcal/mol | 2.96 kcal/mol | R39E (from UniProt P00974)
-0.392 kcal/mol | 2.67 kcal/mol | 0.16 kcal/mol | R39F (from UniProt P00974)
0.681 kcal/mol | 2.29 kcal/mol | 0.361 kcal/mol | R39G (from UniProt P00974)
-1.06 kcal/mol | 2.88 kcal/mol | -0.917 kcal/mol | R39H (from UniProt P00974)
-0.161 kcal/mol | 3.87 kcal/mol | -0.713 kcal/mol | R39I (from UniProt P00974)
-0.246 kcal/mol | 3.47 kcal/mol | 0.317 kcal/mol | R39K (from UniProt P00974)
-0.417 kcal/mol | 3.57 kcal/mol | -0.502 kcal/mol | R39L (from UniProt P00974)
-0.321 kcal/mol | 3.61 kcal/mol | 0.153 kcal/mol | R39M (from UniProt P00974)
1.08 kcal/mol | 4.06 kcal/mol | 0.645 kcal/mol | R39N (from UniProt P00974)
1.82 kcal/mol | 3.87 kcal/mol | 1.27 kcal/mol | R39P (from UniProt P00974)
-0.241 kcal/mol | 3.62 kcal/mol | 0.134 kcal/mol | R39Q (from UniProt P00974)
0.85 kcal/mol | 3.5 kcal/mol | 0.547 kcal/mol | R39S (from UniProt P00974)
0.309 kcal/mol | 3.93 kcal/mol | 0.466 kcal/mol | R39T (from UniProt P00974)
-0.193 kcal/mol | 3.68 kcal/mol | -0.058 kcal/mol | R39V (from UniProt P00974)
-0.648 kcal/mol | 2.9 kcal/mol | -0.991 kcal/mol | R39W (from UniProt P00974)
-0.302 kcal/mol | 3.31 kcal/mol | 0.338 kcal/mol | R39Y (from UniProt P00974)
1.12 kcal/mol | 2.03 kcal/mol | -0.433 kcal/mol | T11A (from UniProt P00974)
-0.0576 kcal/mol | 3.48 kcal/mol | 0.742 kcal/mol | T11C (from UniProt P00974)
0.603 kcal/mol | 3.52 kcal/mol | 0.695 kcal/mol | T11D (from UniProt P00974)
1.74 kcal/mol | 2.48 kcal/mol | 0.643 kcal/mol | T11E (from UniProt P00974)
1.01 kcal/mol | 2.38 kcal/mol | 0.571 kcal/mol | T11F (from UniProt P00974)
0.213 kcal/mol | 1.39 kcal/mol | -0.459 kcal/mol | T11G (from UniProt P00974)
1.83 kcal/mol | 4.27 kcal/mol | 1.5 kcal/mol | T11H (from UniProt P00974)

ddG [1] | ddG [2] | ddG [3] | Substance
-0.171 kcal/mol | 1.92 kcal/mol | 0.227 kcal/mol | T11I (from UniProt P00974)
0.752 kcal/mol | 3.71 kcal/mol | 0.964 kcal/mol | T11K (from UniProt P00974)
-0.321 kcal/mol | 2.44 kcal/mol | 0.446 kcal/mol | T11L (from UniProt P00974)
-0.258 kcal/mol | 2.66 kcal/mol | 0.68 kcal/mol | T11M (from UniProt P00974)
0.953 kcal/mol | 2.58 kcal/mol | -1.66 kcal/mol | T11N (from UniProt P00974)
1.07 kcal/mol | 3.78 kcal/mol | 0.555 kcal/mol | T11P (from UniProt P00974)
0.137 kcal/mol | 3.76 kcal/mol | 0.378 kcal/mol | T11Q (from UniProt P00974)
1.09 kcal/mol | 2.35 kcal/mol | 0.63 kcal/mol | T11R (from UniProt P00974)
1.04 kcal/mol | 2.96 kcal/mol | -0.564 kcal/mol | T11S (from UniProt P00974)
-0.254 kcal/mol | 2.44 kcal/mol | -0.442 kcal/mol | T11V (from UniProt P00974)
1.05 kcal/mol | 1.67 kcal/mol | -0.162 kcal/mol | T11W (from UniProt P00974)
1.58 kcal/mol | 2.91 kcal/mol | 0.578 kcal/mol | T11Y (from UniProt P00974)
-0.225 kcal/mol | 2.24 kcal/mol | -0.00599 kcal/mol | V34A (from UniProt P00974)
-0.371 kcal/mol | 4.2 kcal/mol | 0.38 kcal/mol | V34C (from UniProt P00974)
-1.88 kcal/mol | 2.72 kcal/mol | 0.34 kcal/mol | V34D (from UniProt P00974)
-0.216 kcal/mol | 3.16 kcal/mol | 0.475 kcal/mol | V34E (from UniProt P00974)
0.272 kcal/mol | 2.2 kcal/mol | -1.15 kcal/mol | V34F (from UniProt P00974)
-1.45 kcal/mol | 1.59 kcal/mol | -0.0891 kcal/mol | V34G (from UniProt P00974)
0.433 kcal/mol | 1.62 kcal/mol | -0.975 kcal/mol | V34H (from UniProt P00974)
-0.177 kcal/mol | 2.21 kcal/mol | -1.11 kcal/mol | V34I (from UniProt P00974)
1.82 kcal/mol | 3.44 kcal/mol | 0.197 kcal/mol | V34K (from UniProt P00974)
1.15 kcal/mol | 3.26 kcal/mol | -0.576 kcal/mol | V34L (from UniProt P00974)
0.942 kcal/mol | 2.94 kcal/mol | -0.476 kcal/mol | V34M (from UniProt P00974)
-0.148 kcal/mol | 1.97 kcal/mol | 0.00546 kcal/mol | V34N (from UniProt P00974)
-0.316 kcal/mol | 2.1 kcal/mol | 0.24 kcal/mol | V34P (from UniProt P00974)
1.02 kcal/mol | 3.08 kcal/mol | 0.443 kcal/mol | V34Q (from UniProt P00974)

ddG [1] | ddG [2] | ddG [3] | Substance
1.31 kcal/mol | 3.16 kcal/mol | 0.187 kcal/mol | V34R (from UniProt P00974)
-1.37 kcal/mol | 2.41 kcal/mol | 0.0912 kcal/mol | V34S (from UniProt P00974)
-1.06 kcal/mol | 2.72 kcal/mol | -0.433 kcal/mol | V34T (from UniProt P00974)
0.719 kcal/mol | 2.39 kcal/mol | -0.713 kcal/mol | V34W (from UniProt P00974)
0.199 kcal/mol | 2.17 kcal/mol | -1.25 kcal/mol | V34Y (from UniProt P00974)
1.8 kcal/mol | 3.56 kcal/mol | 0.553 kcal/mol | Y35A (from UniProt P00974)
1.91 kcal/mol | 8.29 kcal/mol | 2.82 kcal/mol | Y35C (from UniProt P00974)
1.49 kcal/mol | 4.92 kcal/mol | 2.69 kcal/mol | Y35D (from UniProt P00974)
2.27 kcal/mol | 5.62 kcal/mol | 3.78 kcal/mol | Y35E (from UniProt P00974)
-0.277 kcal/mol | 0.809 kcal/mol | -0.43 kcal/mol | Y35F (from UniProt P00974)
2.1 kcal/mol | 3.38 kcal/mol | 5.16 kcal/mol | Y35G (from UniProt P00974)
-0.258 kcal/mol | 2.39 kcal/mol | 0.0159 kcal/mol | Y35H (from UniProt P00974)
1.67 kcal/mol | 6.05 kcal/mol | 3.74 kcal/mol | Y35I (from UniProt P00974)
1.71 kcal/mol | 7.81 kcal/mol | 5.08 kcal/mol | Y35K (from UniProt P00974)
2.03 kcal/mol | 5.1 kcal/mol | 1.65 kcal/mol | Y35L (from UniProt P00974)
0.926 kcal/mol | 2.52 kcal/mol | 0.301 kcal/mol | Y35M (from UniProt P00974)
1.74 kcal/mol | 3.43 kcal/mol | 1.56 kcal/mol | Y35N (from UniProt P00974)
1.68 kcal/mol | 7.23 kcal/mol | 3.82 kcal/mol | Y35P (from UniProt P00974)
0.515 kcal/mol | 2.57 kcal/mol | 0.35 kcal/mol | Y35Q (from UniProt P00974)
1.83 kcal/mol | 6.59 kcal/mol | 4.64 kcal/mol | Y35R (from UniProt P00974)
1.88 kcal/mol | 2.49 kcal/mol | 0.56 kcal/mol | Y35S (from UniProt P00974)
2.4 kcal/mol | 4.2 kcal/mol | 2.35 kcal/mol | Y35T (from UniProt P00974)
2.44 kcal/mol | 5.35 kcal/mol | 2.27 kcal/mol | Y35V (from UniProt P00974)
-0.186 kcal/mol | 1.79 kcal/mol | -0.195 kcal/mol | Y35W (from UniProt P00974)

Source: publication PMC8532158
